{"sequences": {"note": "Sequences of proteins named here, by UniProt entry; tags and fusion partners are left off.", "UniProt Q05941, whole entry": "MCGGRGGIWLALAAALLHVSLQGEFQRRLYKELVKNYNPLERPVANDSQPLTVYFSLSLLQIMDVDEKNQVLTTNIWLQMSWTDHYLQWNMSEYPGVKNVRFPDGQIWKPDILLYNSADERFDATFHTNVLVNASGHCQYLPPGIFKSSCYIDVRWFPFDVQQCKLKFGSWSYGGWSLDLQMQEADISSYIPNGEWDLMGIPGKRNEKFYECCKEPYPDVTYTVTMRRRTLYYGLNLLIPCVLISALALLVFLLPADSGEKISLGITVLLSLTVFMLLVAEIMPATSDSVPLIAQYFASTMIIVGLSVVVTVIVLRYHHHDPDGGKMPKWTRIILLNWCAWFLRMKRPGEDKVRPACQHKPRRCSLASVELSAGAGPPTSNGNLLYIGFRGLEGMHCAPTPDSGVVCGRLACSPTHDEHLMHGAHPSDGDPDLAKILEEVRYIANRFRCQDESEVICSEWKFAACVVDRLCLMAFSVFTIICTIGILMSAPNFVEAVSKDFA"}, "source": "ChEMBL document CHEMBL1153063", "about": "(Bioorg Med Chem Lett, 2009)", "target": "Neuronal acetylcholine receptor subunit alpha-7 (Rattus norvegicus, UniProt Q05941)", "assay": "Displacement of [125I]BTX from rat alpha7 nAChR expressed in rat GH4C1 cells", "assay_type": "cell-based, GH4-C1", "how_it_was_run": "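GH₄C₁ cell binding with [¹²⁵I]-BTX; six-point dose–response curve in triplicate, values averaged.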", "note": "pKi: −log10 of the molar value.", "data": [{"smiles": "O=C(Oc1ccc(Br)cc1)N1CCN2CCC1CC2", "note": "[SSR180711]", "values": [{"measurement": "pKi", "value": 7.42}]}]}
